# Target: Serine/threonine-protein kinase PLK1 (Homo sapiens, UniProt P53350)
# Amino acid sequences for entries named in this document (tags omitted).
# UniProt P53350, whole entry: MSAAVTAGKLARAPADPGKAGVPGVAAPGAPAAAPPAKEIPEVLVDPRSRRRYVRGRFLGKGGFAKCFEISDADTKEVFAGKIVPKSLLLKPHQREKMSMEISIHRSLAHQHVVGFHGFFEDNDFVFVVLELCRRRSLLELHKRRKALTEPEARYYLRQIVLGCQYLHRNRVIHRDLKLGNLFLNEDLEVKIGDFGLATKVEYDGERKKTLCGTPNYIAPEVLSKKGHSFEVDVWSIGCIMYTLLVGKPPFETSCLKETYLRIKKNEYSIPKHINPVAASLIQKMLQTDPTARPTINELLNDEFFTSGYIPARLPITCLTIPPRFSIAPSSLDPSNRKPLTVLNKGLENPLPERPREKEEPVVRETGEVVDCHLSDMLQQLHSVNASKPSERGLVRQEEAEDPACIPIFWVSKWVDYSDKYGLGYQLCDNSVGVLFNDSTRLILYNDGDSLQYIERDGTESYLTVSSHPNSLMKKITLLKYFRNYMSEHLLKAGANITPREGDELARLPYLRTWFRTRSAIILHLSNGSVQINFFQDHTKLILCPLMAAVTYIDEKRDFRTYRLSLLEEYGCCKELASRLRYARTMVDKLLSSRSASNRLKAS
# Assay: Binding affinity to […] (unknown origin) using MAGPMQS[pT]PLNGAKK tracer peptide as substrate by fluorescence polarization binding assay
smiles,measurement,value
CCCCCCc1ccc(C(=O)Nc2ccccc2C(=O)O)cc1,IC50,60.9 µM
